This note sets out measurements from publication PMC11189516, “Structure-guided conversion from an anaplastic lymphoma kinase inhibitor into Plasmodium lysyl-tRNA synthetase selective inhibitors” (Communications Biology, 2024).

Protein sequences, listed by entry. Tags and fused reporters are not part of them. Residues count along the entry.
UniProt Q9UM73, 1068-1410 limits assumed: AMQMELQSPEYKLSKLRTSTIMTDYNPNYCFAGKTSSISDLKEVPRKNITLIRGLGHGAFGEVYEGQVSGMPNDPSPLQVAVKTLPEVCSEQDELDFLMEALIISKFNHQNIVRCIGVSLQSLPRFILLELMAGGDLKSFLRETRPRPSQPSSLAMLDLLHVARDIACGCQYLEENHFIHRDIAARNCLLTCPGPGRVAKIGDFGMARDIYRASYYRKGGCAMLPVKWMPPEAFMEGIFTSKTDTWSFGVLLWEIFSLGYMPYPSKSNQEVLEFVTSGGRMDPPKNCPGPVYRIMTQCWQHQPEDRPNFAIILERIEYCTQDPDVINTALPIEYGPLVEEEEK
UniProt Q15046, 70-581 limits assumed: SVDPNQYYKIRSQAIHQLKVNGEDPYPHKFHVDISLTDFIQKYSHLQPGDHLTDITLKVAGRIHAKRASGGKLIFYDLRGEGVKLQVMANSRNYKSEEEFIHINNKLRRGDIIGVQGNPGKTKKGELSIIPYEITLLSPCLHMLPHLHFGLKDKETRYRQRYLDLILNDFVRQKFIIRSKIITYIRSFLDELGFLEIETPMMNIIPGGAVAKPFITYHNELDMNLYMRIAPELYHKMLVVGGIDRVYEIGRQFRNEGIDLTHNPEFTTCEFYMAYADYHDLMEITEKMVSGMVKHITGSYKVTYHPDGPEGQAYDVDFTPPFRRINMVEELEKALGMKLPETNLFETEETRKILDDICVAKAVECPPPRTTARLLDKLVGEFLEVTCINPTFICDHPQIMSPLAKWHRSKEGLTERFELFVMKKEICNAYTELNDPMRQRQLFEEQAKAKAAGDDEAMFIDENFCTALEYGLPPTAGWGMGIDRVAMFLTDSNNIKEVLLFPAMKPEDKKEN

For one experiment, the target named is ALK (Homo sapiens, UniProt Q9UM73). The experiment can be described thus: ATP hydrolysis assay (Kinase-Glo) on ALK.
Another experiment has as its target HsLysRS (Homo sapiens, UniProt Q15046). The experiment can be described thus: ATP hydrolysis assay (Kinase-Glo) on HsLysRS. The format is biochemical. The method, then: The ATP hydrolysis assays were based on Kinase-Glo luminescent Kit (Promega). The experiment was carried out in Corning 384-well white flat bottom microplates. The buffer in the reaction contains 25 mM Hepes pH 7.4, 140 mM NaCl, 40 mM MgCl2, 30 mM KCl, 1 mM TCEP, 0.1 mg·mL^−1 BSA, and 0.004% Tween-20. The compounds were diluted to different concentrations with a 5-fold gradient.
For LysRS assays, DMSO was added into negative control wells and L-lysine was removed in positive control wells. 100 nM LysRS in 2.5 μL Hepes buffer was mixed with compounds and incubated for 10 min. Then 5 μL substrate mixture (2 μM ATP, 10 μM L-lysine and 31 nM pyrophosphatase) was added to start the reaction at 37 °C and incubated for 6 h.
When the reaction reaches the planned time, 10 μL diluted Kinase-Glo reagent (1/50 diluted with a buffer containing 50 mM Tris pH 7.5 and 5% glycerol) was added and incubated for 15 min. Luminescence was measured on the Magellan plate reader (Tecan) and nonlinear regression was performed with Prism (GraphPad).

In the case of `COc1ccc(OC)c(Nc2ncnc(Nc3ccccc3S(=O)(=O)CCCCNC(=O)[C@@H](N)CCCCN)n2)c1`, the “IC50 against ALK” value at ALK is more than 170 µM. The values for the IC50 on ALK (read-out: IC50 against ALK) and on HsLysRS (read-out: IC50 against HsLysRS) were more than 79 µM and 11 µM, respectively. In addition, the “IC50 against HsLysRS” value at HsLysRS was 26 µM.
